scFv variants of Ab-91 (heavy chain) against a SARS-CoV-2 spike peptide

The measurements come from Engelhart et al. 2022 (doi:10.1038/s41597-022-01779-4) through the FLAb antibody collection.

The target is the same throughout: PDVDLGDISGINAS, from the HR2 region of SARS-CoV-2 spike.

Parent scFv Ab-91: VL joined to VH by a 15-residue (Gly4Ser)3 linker. Changes lie in the heavy chain CDRs alone.
VL: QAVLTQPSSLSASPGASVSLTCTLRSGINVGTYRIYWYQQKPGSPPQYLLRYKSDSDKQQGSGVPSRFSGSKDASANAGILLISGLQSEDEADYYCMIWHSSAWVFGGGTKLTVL
VH: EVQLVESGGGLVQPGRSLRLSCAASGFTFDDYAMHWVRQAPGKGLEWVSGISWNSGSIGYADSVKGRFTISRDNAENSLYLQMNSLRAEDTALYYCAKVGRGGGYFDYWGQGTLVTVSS

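In library AAYL51, one, two or three CDR residues were substituted; doubles and triples were drawn at random. Affinity was read by AlphaSeq, a pooled yeast mating assay with surface-displayed partners. After mating in shaken culture at 30 °C for 16 h, diploids were selected and their barcode pairs sequenced. Scores were corrected for input abundance and mapped to Kd with protein pairs of known affinity run in the same pool. There are three technical replicates.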

Variants are written as CDR1, CDR2 and CDR3 of the heavy chain (limits as in the source). Parent: GFTFDDYAMH, GISWNSGSIGYADSVK, VGRGGGYFDY. Scale: log10 of Kd in nM, estimated from mating counts; low values are strong binders. The mean shown is taken over the replicates in which the pair was detected. "n.d." means that the variant was in the library but no mating with the target was seen in that replicate; the authors take this as a sign of poor binding, and no number exists. In this assay the parent's reference entry averaged 1.86; its copy inside this library read 0.88.

CDR-H1	CDR-H2	CDR-H3	replicates, log10 nM	mean, log10 nM
GFLFDDYAMH	GISWNSKSKGYADSVK	VGRGGGYFDY	n.d. n.d. n.d.	n.d.
GATFDDYAMH	GISWNSCSIGYADSDK	VGRGGGYFDY	n.d. n.d. n.d.	n.d.
GFTFDAYAMH	GISWNSGSIGYADSVQ	VGRGGGYFDY	1.44 1.11 0.56	1.03
GFTFDDYAMY	GYSWNSGSKGYADSVK	VGRGGGYFDY	n.d. n.d. n.d.	n.d.
GFTFDDYAMH	DISWNSGSIGYADSVK	VGRGCGYFDC	n.d. n.d. n.d.	n.d.
GFTFDDYAMH	GISWNSASIGAADSVK	VGRGGGYFDD	n.d. 3.90 n.d.	3.90
PFTFDDYAMH	GISWNSGSDGYADSVK	PGRGGGYFDY	n.d. n.d. n.d.	n.d.
GATFDDYAMH	GISWNSGSIGIADSVK	VWRGGGYFDY	5.07 6.21 4.75	5.35
GFTFDDYAMH	GISWNSGSISDADSVY	VGRGGGYFDY	4.60 4.20 n.d.	4.40
GFTFDDYAMH	GISWNSGSIHYADSVW	VGRCGGYFDY	4.87 n.d. n.d.	4.87
GFTFDDYAMH	GITWCSGSIGYADSVK	VGRGGGKFDY	4.68 n.d. n.d.	4.68
GFTFDDYAMH	GISWNKGSIGYGDSVK	VGRGGGYFDY	3.40 4.49 3.30	3.73
GFTFDDYASH	GISWNSGSIGYAISVK	VGRGGGIFDY	4.88 n.d. n.d.	4.88
GFTFDSYAMH	QISWNSSSIGYADSVK	VGRGGGYFDY	4.61 4.94 n.d.	4.78
GFTFDDYAMH	GKCWNSGSIGYADSVK	VGRGGMYFDY	5.65 n.d. n.d.	5.65
GFTPDDYAEH	GISWNSGSIGYADRVK	VGRGGGYFDY	3.56 n.d. n.d.	3.56
GFTFDDYAMN	GISWNSGSIGFTDSVK	VGRGGGYFDY	n.d. 4.82 n.d.	4.82
YFTHDDYAMH	GISWNSGSIGYADSVK	VGRGGGYFDY	n.d. n.d. 3.76	3.76
GFTFDDYAMH	GISWNSGSIGYADMVP	VGRYGGYFDY	n.d. n.d. n.d.	n.d.
GFTFDDYAMH	GISWNSGSIGYADHVK	VGRPGGDFDY	n.d. n.d. n.d.	n.d.
GFTFDDYAMH	PNSWNSGSCGYADSVK	VGRGGGYFDY	n.d. 4.00 n.d.	4.00
GFTFDDDAMH	GISWNIGSIGYADSVK	VGRGGGYFDT	4.10 n.d. n.d.	4.10
GFTFDDYAMH	GISWNSGSIGYADSVM	VGRGGGYFDI	1.03 0.89 0.33	0.75
GITFDDYAMH	GISWNSGNIGYATSVK	VGRGGGYFDY	n.d. n.d. n.d.	n.d.
GFTFDDYAMH	GISWNSGSIGCADSVI	VGRGGGYQDY	n.d. n.d. n.d.	n.d.
GFTDDDYKMH	GDSWNSGSIGYADSVK	VGRGGGYFDY	n.d. n.d. n.d.	n.d.
GFTFADYAMH	GISWNSGSIGYADSVK	VARGDGYFDY	n.d. n.d. n.d.	n.d.
GFTFDPYAMH	GISWNSGSIGWADSVK	VGRGGGQFDY	n.d. n.d. 4.28	4.28
GFTDDDYAMH	GISWGSGSIGYADSVK	VGRGGGYFDW	4.92 n.d. n.d.	4.92
GFTFDSIAMH	GISWNSGSIGYADSVC	VGRGGGYFDY	5.65 3.98 5.19	4.94
GFTFDDYMMH	GISANKGSIGYADSVK	VGRGGGYFDY	n.d. n.d. n.d.	n.d.
GFTKDDYAMH	GISWNSGSIMYADSVK	VGRGGGYFDA	n.d. 4.44 n.d.	4.44
GFTFDDYAMH	GISWNKGSICYADSVK	VGRGGGYFCY	n.d. n.d. n.d.	n.d.
GFTFDDYAMH	GISWNSGQIGKADSVK	VGRFGGYFDY	4.61 5.38 5.38	5.13
GFTFDDYAMP	GISWNSNSIGYADSVK	VGRGGGYYDY	n.d. n.d. n.d.	n.d.
GFTFSDYAMH	GKSWNSGSIGYADSVG	VGRGGGYFDY	n.d. 3.61 n.d.	3.61
GFTFDDYAMH	GISWNHGSFGDADSVK	VGRGGGYFDY	n.d. n.d. n.d.	n.d.
GFTFDDYHEH	GISWNSGSIGYADSDK	VGRGGGYFDY	n.d. n.d. n.d.	n.d.
GFTFDDYAMH	GISWNSGTDGYADSHK	VGRGGGYFDY	n.d. n.d. n.d.	n.d.
GFTFDDYAMH	GISWNIGSIGYADYVK	VGRGGGHFDY	n.d. n.d. n.d.	n.d.
GFTFDDFAMH	GISWNSPSIGYMDSVK	VGRGGGYFDY	n.d. n.d. n.d.	n.d.
GFTFDDYAWH	GISWNCGSIGYADSVK	PGRGGGYFDY	n.d. n.d. n.d.	n.d.
WFTFDDYAMH	AISWNSGSIGDADSVK	VGRGGGYFDY	n.d. n.d. n.d.	n.d.
GFTFDMYAMH	GISWNSGSIGYALSVK	VGRGGGYFDK	n.d. n.d. n.d.	n.d.
GFTFDDYAMH	SIWWNPGSIGYADSVK	VGRGGGYFDY	n.d. n.d. n.d.	n.d.
GFTFDDYAMH	GISWNSYSIGYDDNVK	VGRGGGYFDY	3.20 3.08 3.08	3.12
GFTFDDYAMH	RISWNSGSQGYADEVK	VGRGGGYFDY	4.65 n.d. 5.48	5.06
NFTFDDYAMH	GISWNSGSIGYTDSVK	VGAGGGYFDY	3.28 n.d. n.d.	3.28

The closing 6 entries, repeated:

CDR-H1	CDR-H2	CDR-H3	replicates, log10 nM	mean, log10 nM
WFTFDDYAMH	AISWNSGSIGDADSVK	VGRGGGYFDY	n.d. n.d. n.d.	n.d.
GFTFDMYAMH	GISWNSGSIGYALSVK	VGRGGGYFDK	n.d. n.d. n.d.	n.d.
GFTFDDYAMH	SIWWNPGSIGYADSVK	VGRGGGYFDY	n.d. n.d. n.d.	n.d.
GFTFDDYAMH	GISWNSYSIGYDDNVK	VGRGGGYFDY	3.20 3.08 3.08	3.12
GFTFDDYAMH	RISWNSGSQGYADEVK	VGRGGGYFDY	4.65 n.d. 5.48	5.06
NFTFDDYAMH	GISWNSGSIGYTDSVK	VGAGGGYFDY	3.28 n.d. n.d.	3.28

Background: pairings of library AAYL51 with three empty control strains gave a value in 21% of cases (median 4.54, 5th percentile 3.26). Values in that range, when seen in few replicates, are hard to tell from nonspecific mating.